According to BindingDB's records for 21438612:
pIC50: −log10 of the molar value.

Sequences of proteins named here, by UniProt entry; tags and fusion partners are left off. Residues count along the entry.
UniProt P06276, 29-602 limits assumed: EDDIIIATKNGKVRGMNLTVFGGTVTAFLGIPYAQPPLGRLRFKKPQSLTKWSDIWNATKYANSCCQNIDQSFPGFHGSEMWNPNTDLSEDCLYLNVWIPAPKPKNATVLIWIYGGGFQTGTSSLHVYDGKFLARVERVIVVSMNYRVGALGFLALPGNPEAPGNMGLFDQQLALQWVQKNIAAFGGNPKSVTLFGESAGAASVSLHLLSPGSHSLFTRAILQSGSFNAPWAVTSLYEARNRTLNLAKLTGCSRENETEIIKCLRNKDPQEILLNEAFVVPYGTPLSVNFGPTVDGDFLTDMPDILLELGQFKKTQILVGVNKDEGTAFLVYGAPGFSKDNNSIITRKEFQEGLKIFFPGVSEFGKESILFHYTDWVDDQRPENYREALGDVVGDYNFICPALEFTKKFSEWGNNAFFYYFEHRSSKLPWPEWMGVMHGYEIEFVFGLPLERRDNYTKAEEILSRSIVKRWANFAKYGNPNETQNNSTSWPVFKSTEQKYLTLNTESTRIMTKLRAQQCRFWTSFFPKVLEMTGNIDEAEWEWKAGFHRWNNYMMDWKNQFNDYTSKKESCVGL

Target: Cholinesterase (Homo sapiens, UniProt P06276)
Assay: Inhibition of BuChE using butyrylthiocholine as substrate after 20 mins by Ellman's method

With `CCCCN=C(CN=O)N(C)C` the pIC50 was less than 3.52.
